Patent publication US5840684A, “Glycopeptide antibiotic derivatives” (Eli Lilly and Company, priority 1995, dated 1998)

System: Entercoccus faecium 180-1
Assay: broth micro-dilution MIC
Format: cell-based
Procedure: The formula I compounds have in vitro and in vivo activity against Gram-positive pathogenic bacteria. The MIC's were determined using a standard broth micro-dilution assay.

Molecule `CN[C@H](CC(C)C)C(=O)N[C@H]1C(=O)N[C@@H](CC(N)=O)C(=O)N[C@H]2C(=O)N[C@H]3C(=O)N[C@H](C(=O)N[C@H](C(=O)O)c4cc(O)cc(O)c4-c4cc3ccc4O)[C@H](O)c3ccc(c(Cl)c3)Oc3cc2cc(c3O[C@@H]2O[C@H](CO)[C@@H](O)[C@H](O)[C@H]2O[C@H]2C[C@](C)(N)[C@H](O)[C@H](C)O2)Oc2ccc(cc2Cl)[C@H]1O` [vancomycin, reference compound] has an MIC of 0.5 µg/mL (≈ 0.345 µM).

Values after ≈ are worked out from the molar mass of the structure shown.
